# Patent publication US20080008773A1, “Food beverage or feed for the promotion of osteogenesis comprising umbelliferae, liliaceae or compositae plant species” (priority 2002, published 2008)
# Test system: C3H10T1/2
# Experiment: Induction of differentiation of C3H10T1/2 cells into osteoblasts by water extract and recombinant human BMP-2 (synergistic effects)
# Type: cell-based, Mouse
# Conditions: for Alkaline Phosphatase Activity (%): 11 days
# Method: (1) Mouse interstitial cell strain ST-2 was suspended in DMEM medium (manufactured by Bio Whittaker) containing 10% fetal bovine serum (manufactured by Bio Whittaker) so as to have a concentration of 3×10^4 cells/ml. The suspension was put to a 96-well plate in an amount of 0.1 ml per well, and the cells were cultured sterilely. After the cells were cultured for 2 days, the medium was exchanged with a fresh medium. The compound a derived from root portions of Angelica keiskei koidz. obtained in Example 1 was added thereto as a sample, and the cells were cultured for 3 days. Subsequently, differentiation of ST-2 cells into osteoblasts was measured using alkaline phosphatase as an index. The cells were washed once with PBS, 100 μl of a reaction substrate solution (100 mM diethanolamine buffer, pH 10.0, 2 mM magnesium chloride, 1 mM p-nitrophenyl phosphate) was added thereto, and the reaction was carried out at 37° C. for 30 minutes. Next, the reaction was terminated with adding 100 μl of 0.2 N sodium hydroxide, and the amount of p-nitrophenol which was released was determined by determining absorbance at 405 nm. The activity for induction of differentiation into osteoblasts was shown by setting a group without addition of the sample as a control, and defining alkaline phosphatase activity of the control as 100%. The experiments were carried out twice, and the average was taken.
# Mouse embryonal cell strain C3H10T1/2 was suspended in DMEM medium containing 10% fetal bovine serum so as to have a concentration of 3×10^4 cells/ml. The suspension was put to a 96-well plate in an amount of 0.1 ml per well, and the cells were cultured sterilely. […] Subsequently, differentiation into osteoblasts was measured using alkaline phosphatase as an index in the same manner as in Example 2.
# Mouse embryonal cell strain C3H10T1/2 was suspended in DMEM medium containing 10% fetal bovine serum so as to have a concentration of 3×10^4 cells/ml. […] Subsequently, differentiation into osteoblasts was measured using alkaline phosphatase activity as an index in the same manner as in Example 5.
substance,measurement,setting,value
Recombinant Human BMP-2: recombinant human BMP-2 (manufactured by GT),Alkaline Phosphatase Activity (%),recombinant human BMP-2 500 ng/ml alone (water extract 0%),379.6%
same,Alkaline Phosphatase Activity (%),recombinant human BMP-2 1000 ng/ml alone (water extract 0%),687.1%
same,Induction of differentiation into osteoblasts (in words),recombinant human BMP-2 alone,induces differentiation into osteoblasts in a concentration-dependent manner
